Data: ChEMBL document CHEMBL4052733, “Substituted α-mercaptoketones, new types of specific neprilysin inhibitors” (Bioorg Med Chem Lett, 2017)

What was measured:
[1] = species: Homo sapiens; test: Selectivity for human NEP over ACE (unknown origin)
[2] = species: Homo sapiens; test: Selectivity for human NEP over NEP-2 (unknown origin)
[3] = species: Homo sapiens; test: Selectivity for human NEP over ECE-1 (unknown origin)
[4] = species: Homo sapiens; test: Selectivity for human NEP over ECE-2 (unknown origin)

Measured: Selectivity ratio

CC(C)C[C@H](NC(=O)C(CC(=O)C(S)Cc1ccc(Br)cc1)Cc1ccccc1)C(=O)O (some centres undefined)
20: all assays above
